Test results published in patent US20150011740A1, “FLUORINE-CONTAINING WATER SOLUBLE PLATINUM COMPLEXES FOR TUMOR TREATMENT AND PROCESS OF PREPARING SAME” (GUDUI BIOPHARMA TECHNOLOGY INC., priority 2011, published 2015).

Conditions: buffer, pH 7

With “diisopropylamino platinum (II) (1-O-D-glucoside-ethane-2-fluoro-2,2-dicarboxylate) [Example 25]” the Half-life was 96 h.
